# The entries are a selection whose mix differs from that of the whole data set. Inconclusive results are not listed. Activity calls are given as the source filed them. The call rests on the fitted dose curve; in most records, active means well fitted inhibition curve with a large enough effect; inconclusive means small, poorly fitted or top-dose-only effect; inactive means no such curve, though single readings can be large or run the other way.
# By UniProt entry, the sequences of proteins in these tests, tags left out.
# UniProt Q8WZA2, whole entry: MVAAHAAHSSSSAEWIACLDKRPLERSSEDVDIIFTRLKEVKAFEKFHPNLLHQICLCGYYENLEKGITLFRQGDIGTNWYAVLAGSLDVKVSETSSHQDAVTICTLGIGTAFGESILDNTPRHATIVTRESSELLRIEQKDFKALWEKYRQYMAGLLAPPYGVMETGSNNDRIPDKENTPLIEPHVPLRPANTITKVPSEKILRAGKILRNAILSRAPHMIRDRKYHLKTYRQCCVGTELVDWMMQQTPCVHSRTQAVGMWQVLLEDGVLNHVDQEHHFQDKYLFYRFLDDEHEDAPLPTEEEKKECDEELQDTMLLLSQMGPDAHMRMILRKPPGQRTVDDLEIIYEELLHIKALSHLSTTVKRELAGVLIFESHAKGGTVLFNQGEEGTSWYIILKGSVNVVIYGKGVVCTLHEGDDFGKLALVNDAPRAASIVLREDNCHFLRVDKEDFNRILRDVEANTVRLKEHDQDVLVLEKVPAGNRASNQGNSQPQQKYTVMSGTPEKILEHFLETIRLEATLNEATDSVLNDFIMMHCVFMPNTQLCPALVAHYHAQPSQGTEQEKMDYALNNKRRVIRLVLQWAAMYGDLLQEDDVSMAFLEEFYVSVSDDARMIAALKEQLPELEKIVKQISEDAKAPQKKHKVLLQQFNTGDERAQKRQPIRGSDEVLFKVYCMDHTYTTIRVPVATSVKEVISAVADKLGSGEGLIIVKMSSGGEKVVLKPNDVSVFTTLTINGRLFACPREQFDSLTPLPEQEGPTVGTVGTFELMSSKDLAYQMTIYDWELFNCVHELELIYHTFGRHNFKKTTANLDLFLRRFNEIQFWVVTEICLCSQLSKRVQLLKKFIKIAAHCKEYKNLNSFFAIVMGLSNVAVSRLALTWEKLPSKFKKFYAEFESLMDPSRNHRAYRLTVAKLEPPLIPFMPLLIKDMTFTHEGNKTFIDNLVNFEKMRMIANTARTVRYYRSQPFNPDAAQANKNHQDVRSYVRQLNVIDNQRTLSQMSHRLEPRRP
# Target: Rap guanine nucleotide exchange factor 4 (Homo sapiens) (UniProt Q8WZA2)
# Experiment: Validation qHTS for antagonist of cAMP-regulated guanine nucleotide exchange factor 4 (EPAC2); further: nearly all actives have a fitted effect of over 40% in size
# Conditions: EPAC2 Rap1B BODIPY-GDP exchange, fluorescence
# Source text: Principle Investigator: Xiaodong Cheng Ph.D. The University of Texas Medical Branch, […], TX MLPCN Grant: NS066510 In multi-cellular eukaryotic organisms, the effects of cAMP are transduced by two ubiquitously-expressed intracellular cAMP receptors, the classic protein kinase A/cAMP-dependent protein kinase (PKA/cAPK) and the more recently discovered exchange protein directly activated by cAMP/cAMP-regulated guanine nucleotide exchange factor (EPAC/cAMP-GEF). Both PKA and EPAC are ubiquitously expressed in all tissues, and an increase in intracellular cAMP levels will lead to the activation of both PKA and EPAC. Therefore, careful dissections of the individual role and relative contribution of EPAC and PKA within the overall cAMP signaling in various model systems are critical for further elucidating the mechanism of cAMP signaling. To date no EPAC-specific antagonists and agonist, as well as isoform-specific agonists have been reported, and developing EPAC-specific pharmacological probes to determine the physiological functions that EPAC play in the overall cAMP-mediated signaling remains a major challenge within the research field. Furthermore, identified regulators of EPAC may lead to new mechanism-based therapeutic strategies specifically targeting the EPAC / cAMP-signaling components as EPAC has been implicated to play important roles in major human pathological conditions such as diabetes, heart disease, and cancer. This qHTS will be used to screen the Molecular Libraries Small Molecule Repository (MLSMR) as a concentration-titration series using the NCGC unique quantitative screening (qHTS) platform to find activators for EPAC1. In addition, this assay will also be used as a counterscreen for the EPAC2 qHTS. This fluorescent based assay is developed and validated for EPAC1 that measures exchange using EPAC effector Rap1 complex with BODIPY-GDP, a GDP analog with a tethered fluorophores. Activators are identified by monitoring the change in fluorescence signal as the exchanged free BODIPY-GDP has a reduced fluorescence compared to Rap1-bound BODIPY-GDP. Increase in signal (activation) is the desired outcome for the EPAC1 agonist while no activity in this assay is desired for the EPAC2 agonist counterscreen. Reference: [1] de Rooij, J., Zwartkruis, F. J., Verheijen, M. H., Cool, R. H., Nijman, S. M., Wittinghofer, A., and Bos, J.L. (1998) Nature 396, 474-477.
# Briefly, three uL of reagents (100 nM EPAC2, 250 nM RAP1B-BODIPY-GDP, 50 uM GDP) were dispensed into a 1536-well Greiner black solid-bottom medium binding assay plate. Controls and test compounds (23 nL) were transferred to the plate via a Kalypsys pin tool equipped with a 1536-pin array. The plates were centrifuged at 1,000 rpm for 15 seconds followed by 5 minute incubation at room temperature. The assay plates were read at 5 minute intervals for 30 minutes in the ViewLux plate reader using 480nm excitation and 540nm emission filters. The results were normalized to the agonist positive control of 6.5 mM cAMP.
structure (smiles),measurement,setting,value
O=[N+]([O-])[O-].[NH4+],"activity, negative = inhibition",at 112 µM (top of the series),inactive: 1.75%
CN(C)CCS,"activity, negative = inhibition",at 112 µM (top of the series),inactive: 7.13%
CC(C)N(CCCl)C(C)C,"activity, negative = inhibition",at 112 µM (top of the series),inactive: 11.6%
O=[N+]([O-])c1cccc([N+](=O)[O-])c1,"activity, negative = inhibition",at 112 µM (top of the series),inactive: -20.6%
same,"activity, negative = inhibition",at 239 µM (top of the series),inactive: 0.688%
CCOP(=O)(CC)Oc1ccc([N+](=O)[O-])cc1 (stereo unspecified),"activity, negative = inhibition",at 112 µM (top of the series),inactive: 11.3%
Cc1cccc([N+](=O)[O-])c1[N+](=O)[O-],"activity, negative = inhibition",at 239 µM (top of the series),inactive: 10.2%
CCN(CCCl)Cc1ccccc1C,"activity, negative = inhibition",at 112 µM (top of the series),inactive: -6.07%
C/C1=C2N=C(/C=C3N=C(/C(C)=C4\[N-][C@@](C)([C@@H]5N=C1[C@](C)(CCC(=O)NC[C@@H](C)OP(=O)([O-])O[C@H]1[C@@H](O)[C@@H](n6cnc7cc(C)c(C)cc76)O[C@@H]1CO)[C@H]5CC(N)=O)[C@@](C)(CC(N)=O)[C@@H]4CCC(N)=O)[C@@](C)(CC(N)=O)[C@@H]\3CCC(N)=O)C(C)(C)[C@@H]/2CCC(N)=O.[C-]#N.[Co+3],"activity, negative = inhibition",at 56.6 µM (top of the series),inactive: -11%
OCCSCCO,"activity, negative = inhibition",at 112 µM (top of the series),inactive: 13.1%
CC(C)OP(=O)(F)OC(C)C,"activity, negative = inhibition",at 112 µM (top of the series),inactive: 4.54%

# Reference: PubChem BioAssay AID1645886 (National Center for Advancing Translational Sciences (NCATS), 2021)
